High-throughput results (PubChem)
LMNA splice mod: changes lamin A minigene splicing in HeLa cells; HeLa LMNA splicing GFP/RFP minigene ratio, 48 h; Potency, µM (top dose mostly 46.1 µM), without a hit: top-dose ratio change, negative = inhibition, most hits filed as inhibitors; 200,000 tested, 0.01% active; AID 1487; active = well fitted inhibition curve with a large enough effect in the signal ratio, with a control signal flat, not every such curve was filed as active; inconclusive = small, poorly fitted or top-dose-only effect, or effect the other way, or a change in a side signal; the % refers to the signal ratio; note: potency is the fitted concentration of half-maximal effect; % is set by controls: 0 for no effect and ±100 for the full control effect
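Read-out is the ratio of GFP to DsRed2 object intensity, acquired by 488 nm laser-scanning cytometry on HeLa lamin A-EGFP minigene reporter cells. Compound incubation 48 hrs at 37 °C in Opti-MEM with 2% FBS; DMSO 0.5% final.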
KDM4E inh: inhibitors of human JMJD2E histone demethylase; B2RXH2; JMJD2E catalytic domain, FDH-coupled NADH fluorescence (FDH is formaldehyde dehydrogenase); Potency, µM (top dose mostly 57.1 µM), for the others: top-dose activity change, negative = inhibition, most hits filed as inhibitors; 230,000 tested, 1.6% active; AID 2147; active = well fitted inhibition curve with a large enough effect, not every such curve was filed as active; inconclusive = small, poorly fitted or top-dose-only effect, or another doubt; inactive = no such curve, though single readings can be large or run the other way;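 note: potency is the fitted concentration of half-maximal effect; 0% = wells with enzyme and -100% = buffer wells without enzyme; nearly all actives have a fitted effect of over 50% in size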
G9a block: inhibitors of human histone lysine methyltransferase G9a. Q96KQ7. G9a H3K9 monomethylation, AlphaScreen, 2 h. Potency, µM (doses to about 102 µM), for the others: top-dose activity, negative = inhibition, usual class: inhibitors. 350,000 tested, 8.8% active. AID 504332; note: potency is the fitted concentration of half-maximal effect; % is set by controls: 0 for no effect and ±100 for the full control effect; nearly all actives have a fitted effect of over 75% in size
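AlphaScreen read-out: biotin-H3K9 peptide (500 nM) methylation by 20 nM enzyme with 20 uM SAM, 2 h at room temperature after 15 min compound preincubation; anti-monomethyl H3K9 antibody plus donor/acceptor beads, 10 min dark.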
Sfp inh: qHTS Assay for Inhibitors of Bacillus subtilis Sfp phosphopantetheinyl transferase (PPTase). Biochemical Sfp PPTase activity, qHTS. Potency, µM, for inactives: max response, negative = inhibition, most hits filed as inhibitors. 310,000 compounds, 3.5% hits. 4'-phosphopantetheinyl transferase ffp (Bacillus subtilis), Q9F4F7; active = well fitted inhibition curve with a large enough effect; inconclusive = small, poorly fitted or top-dose-only effect, or another doubt; inactive = no such curve, though single readings can be large or run the other way;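 note: the enzyme is Sfp with the accession as filed and its product quenches rhodamine fluorescence; potency is the fitted concentration of half-maximal effect; 0% = enzyme reaction without inhibitor and -100% = no enzyme wells; top concentration of the series not given in the record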
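Compounds were incubated with enzyme (final 15 nM) for 15 min at room temperature before substrate addition started the reaction. Fluorescence at 525 nm excitation, 598 nm emission was recorded immediately and after 30 minutes.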
ALDH1A1 inh: ALDH1A1 (human) enzyme inhibition | Potency, µM (highest dose often 75.3 µM), inactives show top-dose activity, negative = inhibition, most hits filed as inhibitors | 220,000 tested, 7.3% active | Purified ALDH1A1, NADH fluorescence, propionaldehyde substrate | AID 1030 | P00352; active = well fitted inhibition curve with a large enough effect, not every such curve was filed as active; inconclusive = small, poorly fitted or top-dose-only effect, or another doubt; inactive = no such curve, though single readings can be large or run the other way;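 note: potency is the fitted concentration of half-maximal effect; plate controls were no enzyme wells and a reference inhibitor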
miR-21 FLuc: miR-21 reporter, rising signal. HeLa miR-21 FLuc reporter, luciferase, 48 h. Potency, µM (titrated, usually from 38.3 µM), without a hit: at the top dose reporter change, positive = more light. 340,000 tested, under 10 active. AID 2288; active = well fitted rising curve with a large enough effect; inconclusive = small, poorly fitted or top-dose-only effect; inactive = no such curve, though single readings can be large or run the other way;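 also: % of control where 0% means no effect; miR-21 action dims this reporter so a rising signal means less miR-21 action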
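HeLa miR-21-FLuc reporter line, endogenous miR-21; 2000 cells/well in DMEM/10% FBS; compound titration up to ~40uM final, 48 h, 37 degree Celsius; luciferase detection reagent, 15 min lysis, CCD luminescence.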
Numbers without * were called inactive; [ ] = another dose, or the depositor's remark. Shown are actives, neighbours in structure and some others; about 13% of the full set was active somewhere. Unless noted, calls come from the whole dose curve; as a rule, active = well fitted curve in the direction sought with a large enough effect; inconclusive = small, poorly fitted or top-dose-only effect, or another doubt; inactive = no such curve, though single readings can be large; an effect the other way counts as inactive or inconclusive.

CC1=C(C(=O)NCc2ccc(Cl)cc2)C2(CCC(C)CC2)OC1=O (configuration not stated) was read as KDM4E inh -5%, G9a block 2%, Sfp inh 20% and miR-21 FLuc 8%.
`COc1ccc(CNC(=O)C2=C(C)C(=O)OC23CCC(C)CC3)cc1` (configuration not stated) gave LMNA splice mod 0%, KDM4E inh 6%, G9a block -14%, Sfp inh -16%, ALDH1A1 inh 5.6µM* and miR-21 FLuc -2%.
Screening CCOc1ccc(CCNC(=O)C2=C(C)C(=O)OC23CCC(C)CC3)cc1 (configuration not stated) returned LMNA splice mod 4%, KDM4E inh 9%, G9a block 10%, Sfp inh 7%, ALDH1A1 inh -1% and miR-21 FLuc -1%.
`CC1=C(C(=O)NCc2ccccn2)C2(CCC(C)CC2)OC1=O` (configuration not stated) gave LMNA splice mod -7%, KDM4E inh -4%, G9a block 10µM*, Sfp inh -3%, ALDH1A1 inh inconclusive and miR-21 FLuc 0%.
Screening O=C(CCCCCNC(=O)N1CCn2c1nc1ccccc12)NCc1ccccc1 returned G9a block -11%, Sfp inh 12% and miR-21 FLuc -1%.
`CCCCc1nnc(SCCSc2nnc(CCCC)n2N)n1N` gave LMNA splice mod -8%, KDM4E inh 0%, G9a block 2%[12.7 µM], Sfp inh 5%, ALDH1A1 inh 18µM* and miR-21 FLuc -3%.
`O=C(c1ccncc1)N1CCC2(CCCN(c3ccncc3)C2)CC1` gave G9a block 4%[12.7 µM], Sfp inh 11% and ALDH1A1 inh 16%.
`CCC(=O)Nc1ccc(NC(=O)CSc2nc3cc4c(cc3cc2C)CCC4)cc1` gave LMNA splice mod 4%, KDM4E inh -2%, G9a block 13%[12.7 µM], Sfp inh inconclusive, ALDH1A1 inh 11µM* and miR-21 FLuc 12%.
Screening O=C(Cc1ccccc1)NCCc1csc2nc(-c3ccc(Cl)cc3)nn12 returned LMNA splice mod inconclusive, G9a block 17%[59 µM] and miR-21 FLuc -7%.
For CCN(CC)Cc1c(NC(=O)c2ccccc2)sc(C)c1C the results were KDM4E inh 5%, G9a block inconclusive, Sfp inh 16%, ALDH1A1 inh inconclusive and miR-21 FLuc -38%.
For CCOC(=O)c1c(NC(=O)c2ccccc2)sc2c(O)c(CN(CC)CC)ccc12 the results were LMNA splice mod 9%, KDM4E inh -7%, G9a block 50µM*, Sfp inh 1%, ALDH1A1 inh 1% and miR-21 FLuc -4%.
Screening COc1ccc(-n2nc(C(=O)Nc3cc(C)ccn3)c3c4ccccc4n(C)c3c2=O)cc1 returned G9a block inconclusive and miR-21 FLuc 1%.
For CCCc1cc(=O)[nH]c(SCC(=O)c2ccc(S(=O)(=O)N3CCCC3)cc2)n1 the results were LMNA splice mod inconclusive, KDM4E inh -5%, G9a block 50µM*, Sfp inh -8%, ALDH1A1 inh inconclusive and miR-21 FLuc -11%.
Screening CCCc1cc(=O)[nH]c(SCC(=O)c2cc(C)n(C3CC3)c2C)n1 returned LMNA splice mod 11%, KDM4E inh -4%, Sfp inh 2%, ALDH1A1 inh 1% and miR-21 FLuc -9%.
`CCCc1cc(=O)[nH]c(SCC(=O)CSc2nc(CCC)cc(=O)[nH]2)n1` gave LMNA splice mod 0%, KDM4E inh -3%, G9a block 56µM*, Sfp inh 56µM*, ALDH1A1 inh 14µM* and miR-21 FLuc -4%.
Screening CCCc1cc(=O)[nH]c(SCC(=O)NC)n1 returned LMNA splice mod 5%, KDM4E inh 2%, G9a block 11%, Sfp inh -8%, ALDH1A1 inh 3% and miR-21 FLuc -3%.
CCCc1cc(=O)[nH]c(SCC(=O)c2cc(C)n(C)c2C)n1 was read as LMNA splice mod 6%, KDM4E inh -6%, G9a block 50µM*, Sfp inh 7%, ALDH1A1 inh -7% and miR-21 FLuc -10%.
Screening COc1cc(C(=O)OCC(=O)NC2CCCCCC2)ccc1OCC(C)C returned G9a block -6%.
For Cc1nn(-c2ccccc2)c(-n2cccc2)c1C(=O)NCCc1ccc(Cl)cc1 the results were G9a block 56%[59 µM] and miR-21 FLuc -2%.
For O=C1/C(=C/c2c[nH]c3ccccc23)CCC/C1=C\c1c[nH]c2ccccc12 the results were LMNA splice mod inconclusive, KDM4E inh inconclusive, G9a block inconclusive, Sfp inh 50µM*, ALDH1A1 inh 1.3µM* and miR-21 FLuc 0%.
Screening CCc1nn2c(=O)cc(CSCC(=O)Nc3ccccc3F)nc2s1 returned Sfp inh 3% and miR-21 FLuc 0%.
O=C(CSCC(=O)Nc1nc(-c2ccc3c(c2)OCO3)cs1)Nc1nccs1 was read as KDM4E inh -4%, G9a block 15%, Sfp inh -20%, ALDH1A1 inh 22µM* and miR-21 FLuc -6%.
O=C(CSc1ccc(-c2ccc3c(c2)OCO3)nn1)Nc1nccs1 was read as KDM4E inh 0%, G9a block 3%, Sfp inh inconclusive, ALDH1A1 inh 16% and miR-21 FLuc -16%.
Cc1nc(-c2ccc3c(c2)OCCCO3)cs1 was read as KDM4E inh -5%, G9a block inconclusive, Sfp inh 4%, ALDH1A1 inh 25µM* and miR-21 FLuc -52%.
`O=C(O)C(=O)Nc1nc(-c2ccc3c(c2)OCCO3)cs1` gave G9a block 32µM*, Sfp inh -28% and miR-21 FLuc -39%.
Screening C[C@@H]1CCC2C(C)(C)C3CC21CC[C@@]3(C)O (some centres not stated) returned KDM4E inh 7%, Sfp inh -11% and ALDH1A1 inh -10%.
CCOc1ccc(CCNC(=O)CCCc2nnc3n(C)c(=O)c4sccc4n23)cc1OCC was read as G9a block 2%[59 µM] and miR-21 FLuc -3%.
For CCc1ccc(C(=O)NNc2ccc(S(N)(=O)=O)cc2)cc1 the results were KDM4E inh 3%, G9a block 22µM*, Sfp inh -1% and miR-21 FLuc -20%.
CCc1ccc(C(=O)NNc2ccc(F)cc2)cc1 was read as LMNA splice mod inconclusive, KDM4E inh -20%, Sfp inh -4%, ALDH1A1 inh inconclusive and miR-21 FLuc 3%.
NS(=O)(=O)c1ccc(NNC(=O)c2ccccc2)cc1 was read as KDM4E inh 2%, Sfp inh inconclusive and miR-21 FLuc 1%.

Three compounds out of the list, arranged by count of non-hydrogen atoms, descending.
For CCc1ccc(C(=O)NNc2ccc(S(N)(=O)=O)cc2)cc1 the results were KDM4E inh 3%, G9a block 22µM*, Sfp inh -1% and miR-21 FLuc -20%.
`O=C(O)C(=O)Nc1nc(-c2ccc3c(c2)OCCO3)cs1` gave G9a block 32µM*, Sfp inh -28% and miR-21 FLuc -39%.
CCc1ccc(C(=O)NNc2ccc(F)cc2)cc1 was read as LMNA splice mod inconclusive, KDM4E inh -20%, Sfp inh -4%, ALDH1A1 inh inconclusive and miR-21 FLuc 3%.
